Legend:
[1] = system: VWF-055 (VWF D′D3-Fc fusion construct; 34 aa VWF linker comprising an a2 region from FVIII)
[2] = system: VWF-039 (VWF D′D3-Fc fusion construct; 26 aa VWF linker with LVPR thrombin cleavage site and PAR1 exosite interaction motif)
[3] = system: VWF-054 (VWF D′D3-Fc fusion construct; 40 aa VWF linker comprising an a1 region from FVIII)
[4] = system: VWF-056 (VWF D′D3-Fc fusion construct; 46 aa VWF linker comprising an a3 region from FVIII)
[5] = system: VWF-051 (VWF D′D3-Fc fusion construct; 54 aa linker with thrombin cleavage site A-L-R-P-R-V-V)

## human alpha-thrombin
[1]
  slope of thrombin-mediated cleavage rate (RU/s) vs capture density (RU), as ratio to VWF-031 (Biacore, 5 U/ml thrombin, 37 C): SlopeVWF-055/slopeVWF-031 is 65
[2]
  slope of thrombin-mediated cleavage rate (RU/s) vs capture density (RU), as ratio to VWF-031 (Biacore, 5 U/ml thrombin, 37 C): SlopeVWF-039/slopeVWF-031 is 71
  thrombin cleavage rate relative to VWF-031 (Biacore): approximately 70-80-fold faster than VWF-031 (LVPR)
[3]
  thrombin cleavage, fold reduction (Biacore; reference not given, by context VWF-039/VWF-055): showed ˜5-fold reduced thrombin cleavage
[4]
  thrombin cleavage, fold reduction (Biacore; reference not given, by context VWF-039/VWF-055): showed ˜5-fold reduced thrombin cleavage
[5]
  slope of thrombin-mediated cleavage rate (RU/s) vs capture density (RU), as ratio to VWF-031 (Biacore, 5 U/ml thrombin, 37 C): slopeVWF-051/slopeVWF-031 is 1.8

Reference: patent US20160251408
